From patent US6689749B1, “Neuropeptides originating in scorpion” (Suntory Limited, priority 1996, dated 2004)
Like-named read-outs stand apart in the source and are kept apart here.

By UniProt entry, the sequences of proteins in these tests, tags left out.
UniProt P15384, whole entry: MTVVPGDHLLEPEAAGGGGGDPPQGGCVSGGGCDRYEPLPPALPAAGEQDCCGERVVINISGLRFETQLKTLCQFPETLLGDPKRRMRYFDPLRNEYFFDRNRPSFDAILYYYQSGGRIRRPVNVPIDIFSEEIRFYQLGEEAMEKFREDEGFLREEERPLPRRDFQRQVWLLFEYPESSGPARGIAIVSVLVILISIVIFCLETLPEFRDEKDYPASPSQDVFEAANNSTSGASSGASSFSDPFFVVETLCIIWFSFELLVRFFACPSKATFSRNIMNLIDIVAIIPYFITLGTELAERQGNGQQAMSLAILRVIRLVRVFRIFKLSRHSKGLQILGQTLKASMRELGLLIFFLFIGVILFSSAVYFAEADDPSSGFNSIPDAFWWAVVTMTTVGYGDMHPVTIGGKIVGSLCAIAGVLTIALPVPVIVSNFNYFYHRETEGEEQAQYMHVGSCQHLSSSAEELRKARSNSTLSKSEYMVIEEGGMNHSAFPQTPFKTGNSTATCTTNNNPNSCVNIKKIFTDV
UniProt P17659, whole entry: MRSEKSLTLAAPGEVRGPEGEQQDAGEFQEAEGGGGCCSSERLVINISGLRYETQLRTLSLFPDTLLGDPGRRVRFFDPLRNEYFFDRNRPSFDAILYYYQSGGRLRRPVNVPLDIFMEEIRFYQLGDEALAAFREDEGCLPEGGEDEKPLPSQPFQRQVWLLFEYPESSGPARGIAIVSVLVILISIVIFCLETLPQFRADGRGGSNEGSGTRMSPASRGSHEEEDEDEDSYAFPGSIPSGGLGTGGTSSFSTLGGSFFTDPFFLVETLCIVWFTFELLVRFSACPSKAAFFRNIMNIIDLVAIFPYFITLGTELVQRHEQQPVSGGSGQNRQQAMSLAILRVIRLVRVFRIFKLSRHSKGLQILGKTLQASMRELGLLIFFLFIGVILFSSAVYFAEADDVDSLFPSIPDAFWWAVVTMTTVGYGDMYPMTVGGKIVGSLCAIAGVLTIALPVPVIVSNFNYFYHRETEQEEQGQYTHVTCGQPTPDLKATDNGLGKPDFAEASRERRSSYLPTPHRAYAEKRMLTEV
UniProt P10499, whole entry: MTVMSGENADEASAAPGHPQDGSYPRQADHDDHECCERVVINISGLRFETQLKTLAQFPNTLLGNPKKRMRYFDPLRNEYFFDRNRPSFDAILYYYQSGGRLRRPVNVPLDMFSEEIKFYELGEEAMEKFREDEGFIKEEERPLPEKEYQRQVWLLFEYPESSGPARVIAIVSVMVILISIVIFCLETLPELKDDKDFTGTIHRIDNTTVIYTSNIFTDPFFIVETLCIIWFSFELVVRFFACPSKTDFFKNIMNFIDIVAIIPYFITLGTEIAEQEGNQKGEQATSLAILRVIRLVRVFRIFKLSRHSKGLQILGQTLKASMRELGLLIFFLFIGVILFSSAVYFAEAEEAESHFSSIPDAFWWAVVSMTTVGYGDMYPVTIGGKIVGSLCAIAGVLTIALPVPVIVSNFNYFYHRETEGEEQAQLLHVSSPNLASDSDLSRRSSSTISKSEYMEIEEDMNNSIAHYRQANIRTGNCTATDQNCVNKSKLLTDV

Experiments:
Format in all cases: cell-based
[1] = system: IL-2 production by human peripheral blood T cells; test: IL-2 production by human peripheral blood T cells stimulated with PMA and ionomycin (IL-2 ELISA); details: for inhibition rate against IL-2 production: 20 hr
Method: Inhibitory activity of HsTX1 on IL-2 production by activated T cells was examined in the following manner. Mononuclear leukocytes were isolated from heparinized peripheral blood from a normal donor by a centrifugation technique with a mono-poly resolving medium (Dainippon Pharmaceuticals Co., Ltd.), and then applied to a nylon wool column. The column was incubated at 37° C. for 30 min and then non-adherent cells were isolated therefrom. The purified T-cells obtained were suspended in RPMI 1640 medium supplemented with 10% inactivated fetal calf serum, 100 U/ml of penicillin and 100 μg/ml of streptomycin. This suspension was plated onto a 96-well flat-bottom plate in a final concentration of 1×1 ^6 cells/ml, 1 ng/ml of phorbol myristate acetate (PMA) and 250 ng/ml of ionomycin were further added thereto as stimulators, and the plate was cultivated in a 5% CO2 gas incubator at 37° C.
At the time of starting of cultivation, HsTX1 was added to each well in concentrations of 0.1, 1, 10 and 100 nM, respectively, to the final volume for each well of 200 μl. After 20 hr, the culture supernatant was collected and then determined for IL-2 concentration therein using a human IL-2 ELISA kit (Endogen).

[2] = biological target: T1, rat brain voltage-gated K+ channel, Kv1.3 (Rattus norvegicus, UniProt P15384); test: Assay of K+ channel inhibition: two-electrode voltage clamp of Kv1.3 expressed in Xenopus oocytes; details: for IC50: rat Kv1.3 in Xenopus oocytes, about 22° C.
T1 construct: expressed in transfected cells; host or cells: Xenopus oocytes (cRNA injection; pAS18 vector, SP6 transcription; clone from Prof; O. Pongs)
Method: (§1) Assay on inhibitory activity of the peptides on K^+ channels was performed in the following manner. The gene of the rat brain voltage-gated K^+ channel, Kv1.3 (Stuhmer et al., EMBO J., 8, vol. 11, pp. 3235-3244, 1988), which was graciously contributed by Prof. O. Pongs (Institute für Neurale Signalverarbeitung, Hamburg, Germany) was inserted into pAS18 vector according to a conventional technique. This vector was treated with EcoRI and then the resultant clone was transcribed in vitro with SP6 RNA polymerase using a transcription kit (Stratagene Inc., USA). The cRNA obtained was injected into Xenopus oocytes 16-72 hr prior to electrophysiological experiments.
(§2) The oocytes which had been expressed the Kv1.3 gene were added to a 100 μl-chamber filled with an ND96 solution (0.3 mM CaCl2, 1 mM MgCl2, 2 mM KCl and 96 mM NaCl in 5 mM Hepes buffer, pH 7.6) supplemented with 50 mg/ml of bovine serum albumin (BSA), and the ND96 solution was continuously perfused through reservoirs at a flow rate of 4 ml/min. The sample to be tested was separately dissolved to an ND96 solution and then added to the chamber by perfusion through a reservoir. The switching from one reservoir to another for each experiment was performed by means of Teflon valves. All measurements were made at room temperature (about 22° C.).
The oocytes were impaled by two microelectrodes filled with 3M KCl (internal resistance: 0.5-2 MΩ) and voltage-clamped using Axoclamp-2 two electrode voltage-clamp amplifier (Axon Instruments, Inc.) in a mode where the voltage of the chamber was clamped at 0V. Currents were low-pass filtered at 1 kHz using a 8 pole-Bessel filter (CyberAmp, Axon Instruments Inc.; −3dB), sampled and digitized at 10 kHz using Digidate 1200 Interface (Axon Instruments Inc.), and then saved the data to a photomagnetic disk for subsequent off-line analysis. Programming and recording of the potential and analysis of the saved data were performed by running Pclamp software (Axon Instruments Inc.) in a Compaq PC computer. The measurement was conducted with a holding potential of −80 mV and a holding current of not more than −40 nA.
Inhibitory activity of HsTX1 of the present invention on Kv1.3 channels was examined by measuring the concentration-dependent inhibition of the voltage-gated outward current on the voltage-gated K^+ channels expressed in Xenopus oocyte system. […] Transient perfusion with 100 pM of HsTX1 followed by perfusion without any peptide like the control caused over 85% recovery of K^+ current over time.

[3] = biological target: T2, Kv1.6 (subtype of rat brain voltage-gated K+ channel) (Rattus norvegicus, UniProt P17659); test: Activity on other voltage-gated K+ channels: Kv1.6 expressed in Xenopus oocytes
T2 construct: expressed in transfected cells; host or cells: Xenopus oocytes
Method: as §1
as §2, with “C.). […]” for “C.).”

[4] = biological target: T3, Kv1.1 (subtype of rat brain voltage-gated K+ channel) (Rattus norvegicus, UniProt P10499); test: Activity on other voltage-gated K+ channels: Kv1.1 expressed in Xenopus oocytes
T3 construct: expressed in transfected cells; host or cells: Xenopus oocytes
Method: as §1
as §2, with “C.). […]” for “C.).”

Compound	inhibition rate against IL-2 production ([1]; 0.1 nM)	inhibition rate against IL-2 production ([1]; 1 nM)	inhibition rate against IL-2 production ([1]; 10 nM)	inhibition rate against IL-2 production ([1]; 100 nM)	inhibition of IL-2 production, significance ([1]; 0.1, 1, 10 and 100 nM, Dunnett's test)	inhibition of voltage-gated outward current ([2]; 10 pM peptide, all voltages tested, vs control without peptide)	IC50 ([2]; 50% blocking/inhibition concentration (IC50) on Kv1.3 channels)	potency on K+ channels relative to Pi1 (times stronger) ([2]; compared with scorpion toxin Pi1)	activity on Kv1.6 relative to Kv1.3 ([3]; IC50 comparison with Kv1.3)	IC50 ([3]; rat Kv1.6 in Xenopus oocytes)	IC50 ([2]; read-out: 50% blocking/inhibition concentration (IC50) on Kv1.3 channels)	activity on Kv1.1 relative to Kv1.3 ([4]; IC50 comparison with Kv1.3)	IC50 ([4]; rat Kv1.1 in Xenopus oocytes)
CSCC[C@@H]1NC(=O)[C@@H]2CSSC[C@H](NC(=O)[C@H](CO)NC(=O)[C@H](C)N)C(=O)N[C@@H](CCCNC(=N)N)C(=O)N[C@@H]([C@@H](C)O)C(=O)N3CCC[C@H]3C(=O)N[C@@H](CCCCN)C(=O)N[C@@H](CC(=O)O)C(=O)N[C@H]3CSSC[C@H](NC(=O)[C@H](CCCCN)NC(=O)[C@H](CCCNC(=N)N)NC(=O)[C@H](CC(N)=O)NC1=O)C(=O)N[C@@H](CCCCN)C(=O)N[C@H]1CSSC[C@H](NC(=O)[C@@H]4CCCN4C(=O)[C@H](CC(=O)O)NC(=O)[C@H](C)NC3=O)C(=O)N[C@@H](CCCNC(=N)N)C(=O)N[C@@H](CCCCN)C(=O)N[C@@H](CCC(=O)O)C(=O)N[C@@H]([C@@H](C)O)C(=O)NCC(=O)N[C@@H](CSSC[C@@H](C(N)=O)NC(=O)[C@H](CCCNC(=N)N)NC(=O)[C@H](CC(N)=O)NC1=O)C(=O)N1CCC[C@H]1C(=O)N[C@@H](Cc1ccc(O)cc1)C(=O)NCC(=O)N[C@@H](CCCCN)C(=O)N2 [HsTX1]	28.6%	45.7%	46.0%	46.7%	significantly inhibited	~50%	12 pM	about 800 times	–	–	–	–	–
CSCC[C@@H]1NC(=O)[C@@H]2CSSC[C@H](NC(=O)[C@H](CO)NC(=O)[C@H](C)N)C(=O)N[C@@H](CCCNC(=N)N)C(=O)N[C@@H]([C@@H](C)O)C(=O)N3CCC[C@H]3C(=O)N[C@@H](CCCCN)C(=O)N[C@@H](CC(=O)O)C(=O)N[C@H]3CSSC[C@H](NC(=O)[C@H](CCCCN)NC(=O)[C@H](CCCNC(=N)N)NC(=O)[C@H](CC(N)=O)NC1=O)C(=O)N[C@@H](CCCCN)C(=O)N[C@H]1CSSC[C@H](NC(=O)[C@@H]4CCCN4C(=O)[C@H](CC(=O)O)NC(=O)[C@H](C)NC3=O)C(=O)N[C@@H](CCCNC(=N)N)C(=O)N[C@@H](CCCCN)C(=O)N[C@@H](CCC(=O)O)C(=O)N[C@@H]([C@@H](C)O)C(=O)NCC(=O)N[C@@H](CSSC[C@@H](C(N)=O)NC(=O)[C@H](CCCNC(=N)N)NC(=O)[C@H](CC(N)=O)NC1=O)C(=O)N1CCC[C@H]1C(=O)N[C@@H](Cc1ccc(O)cc1)C(=O)NCC(=O)N[C@@H](CCCCN)C(=O)N2 [synthetic HsTX1]	–	–	–	–	–	–	–	–	about one-thirty	~300 pM	~13 pM	about one-thirty	~300 pM
